# Experimental data: PMC4769596 (Biochemical pharmacology, 2014)
# Assays:
# [1] = target: μOR homomers (μ^βgalOR cells) (Homo sapiens, UniProt P35372); assay type: cell-based
# [2] = target: μOR-δOR heteromers (μ^βgalOR-δOR cells) (Homo sapiens, UniProt P35372+P41143)
substance,measurement,setting,value
deltorphin II,β-arrestin recruitment to μOR,[1],but not to μ^βgalOR cells
same,β-arrestin recruitment to μOR,[2],induces β-arrestin recruitment
